Values quoted from earlier work in patent US20200069786A1, “COMPOSITION AND PROCESS FOR PREPARING VACCINE” (TREOS BIO ZRT., priority 2018, published 2020).
Like-named read-outs stand apart in the source and are kept apart here.

What was measured:
[1] = tested on: TSA; settings: cited from earlier work
[2] = tested on: subjects of 64 clinical studies; settings: published clinical trials; proportion of subjects in the study population with T cell responses induced by the study vaccine; cited from earlier work

KOC1
TSA Expression Rate (ER) ([1]; BRAIN): 38%
TSA Expression Rate (ER) ([1]; BREAST): 8%
TSA Expression Rate (ER) ([1]; HCC): 66%
TSA Expression Rate (ER) ([1]; LUNG): 62%
TSA Expression Rate (ER) ([1]; OVARIAN): 43%
TSA Expression Rate (ER) ([1]; PANCREATIC): 54%
TSA Expression Rate (ER) ([1]; THYROID): 65%
Expression Rate (ER) % ([1]; TSA expression rate in BLADDER cancer): 20%
Expression Rate (ER) % ([1]; TSA expression rate in CRC): 65%
Expression Rate (ER) % ([1]; TSA expression rate in Cervical cancer): 68%
Expression Rate (ER) % ([1]; TSA expression rate in Esophageal): 74%
Expression Rate (ER) % ([1]; TSA expression rate in GASTRIC cancer): 52%
Expression Rate (ER) % ([1]; TSA expression rate in HEAD and NECK): 29%
Expression Rate (ER) % ([1]; TSA expression rate in Kidney): 22%
Expression Rate (ER) % ([1]; TSA expression rate in MELANOMA): 46%
Expression Rate (ER) % ([1]; TSA expression rate in PROSTATE cancer): 0%

Her2/neu peptide vaccine (p369)
IRR [2]: 62%
